Test results published in ChEMBL document CHEMBL3352658 (Eur J Med Chem, 2014).

Amino acid sequences for entries named in this document (tags omitted).
UniProt P01375, whole entry: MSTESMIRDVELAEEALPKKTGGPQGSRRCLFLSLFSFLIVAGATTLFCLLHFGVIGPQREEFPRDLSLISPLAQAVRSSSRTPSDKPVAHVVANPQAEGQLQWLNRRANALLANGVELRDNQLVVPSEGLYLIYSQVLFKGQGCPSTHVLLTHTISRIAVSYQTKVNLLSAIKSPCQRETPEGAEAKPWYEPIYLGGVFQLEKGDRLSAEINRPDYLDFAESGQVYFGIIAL

Target: Tumor necrosis factor (Homo sapiens, UniProt P01375)
Assay: Inhibition of recombinant human TNFalpha binding to TNF receptor 1-ECD at 100 uM by surface plasmon resonance-based in vitro competitive binding assay

`O=C(O)CCCNS(=O)(=O)c1ccc2c3c(cccc13)C(=O)N2` showed an inhibition of 16%.
